Test: Stability of the octreotide in formulations at room temperature over time (HPLC)
Format: physicochemical
Details: SAIB/NMP formulation, after seven days at room temperature
From the text: Those peaks were not observed from the formulation at the beginning, indicating the generation of impurities or degradation products of the octreotide. The intensity of these peaks increased with the increase of time, while the peak for octreotide decreases over time. […] Therefore, this type of formulation must be modified to be suitable for controlled release delivery of various bioactive substances.
Octreotide acetate (OCT-Ac), octreotide dodecyl sulfate (OCT-SDS) and octreotide docusate (OCT-DSS) complex powders were dissolved in NMP. Then the solutions containing various salt forms of octreotide were thoroughly mixed with SAIB solution in NMP (90% w/w).
After two hours, about 4% of the octreotide was degraded or reacted.

Substance | degradation of the octreotide detected
octreotide docusate [OCT-DSS] | little or no degradation
octreotide dodecyl sulfate [OCT-SDS] | little or no degradation

— patent US8586103B2, “Non-polymeric compositions for controlled drug delivery” (Foresee Pharmaceuticals, LLC, priority 2008, dated 2013)
